The list shows a part of the results, in another mix than the full data. Some tests of the compounds listed are not included; inactive here does not mean inactive elsewhere. The source made the active and inactive calls. No stated cut-off is given here; in the data, active means inhibition above about 24%; inactive means the rest.
The compounds below were run against Major prion protein (Homo sapiens) (UniProt P04156) (assay: inhibitors of human cell surface prion protein PrPC, primary screen, cell-based, TR-FRET (AID 720596; further: 0% = median of the test wells and 100% = reference compound wells)). Details: TR-FRET read-out, at 13.8 µM, hits give high values.
In the case of `COc1ccc(Cl)cc1C(=O)NCC1(N(C)C)CCCCC1`, the inhibition is reported as inactive: 2.3%.
`COc1cccc(C(=O)NCC2(N3CCCCC3)CCCCC2)c1` was tested, and the inhibition was inactive: -3.36%.
In the case of `O=C(NCC1(N2CCCCC2)CCCCC1)c1cccc(Cl)c1`, the inhibition is reported as inactive: 2.7%.
With `CN(C)C1(CNC(=O)c2ccc(Br)cc2)CCCCC1` the inhibition was inactive: -3.59%.
In the case of `COc1cc(C(=O)NCC2(N(C)C)CCCCC2)c([N+](=O)[O-])cc1OC`, the inhibition is reported as inactive: -16.6%.
With `C=C(C)C#CC(O)(C(=O)OC1CCN(C)CC1)c1ccccc1` (stereo unspecified) the inhibition was inactive: -7.66%.
For `COc1ccc(Br)c(C(=O)NCC2(N3CCCCC3)CCCCC2)c1`, the inhibition was inactive: -12.7%.
With `O=C(OCCN1CCCC1)C(O)(c1ccccc1)c1ccccc1` the inhibition was inactive: 2.29%.
For `CC(C)Oc1ccc(C(=O)NCC2(N(C)C)CCCCC2)cc1`, the inhibition was inactive: -6.05%.
With `CN(C)c1cccc(C(=O)NCC2(N(C)C)CCCCC2)c1` the inhibition was inactive: -0.3%.
With `O=C(OC1CN2CCC1CC2)C(CO)(c1ccccc1)c1ccccc1` (stereo unspecified) the inhibition was inactive: 0.59%.
`COc1cc(SC)ccc1C(=O)NCC1(N(C)C)CCCCC1` was tested, and the inhibition was inactive: -4.82%.
`CCN(CC)CC(C)C(C)OC(=O)C(O)(c1ccccc1)c1ccccc1` (stereo unspecified) was tested, and the inhibition was inactive: -9.84%.
In the case of `CC(C)N1C(=O)CC2(CCN(CCOC(=O)C(O)(c3ccccc3)c3ccccc3)CC2)C1=O`, the inhibition is reported as inactive: -4.82%.
For `Cc1ccc(C(=O)NCC2(N3CCCCC3)CCCCC2)cc1`, the inhibition was inactive: -2.1%.
`O=C(NCC1(N2CCCCC2)CCCCC1)c1cc([N+](=O)[O-])ccc1Cl` was tested, and the inhibition was inactive: -11.5%.
`CN1[C@@H]2CC[C@H]1CC(OC(=O)C(O)(c1ccccc1)c1ccccc1)C2` (stereo partly specified) was tested, and the inhibition was inactive: -7.46%.
With `O=C(NCC1(N2CCCCC2)CCCCC1)c1cc(F)c(F)cc1Cl` the inhibition was inactive: -5.05%.
In the case of `C=CCN1CCN(CCOC(=O)C(O)(c2ccccc2)c2ccccc2)CC1`, the inhibition is reported as inactive: 5.58%.
`COc1ccc(C(=O)NCC2(N(C)C)CCCCC2)cc1` was tested, and the inhibition was inactive: -5.65%.
For `O=C(NCC1(N2CCCCC2)CCCCC1)c1cccc(Br)c1`, the inhibition was inactive: -3.54%.
For `CCN1CCCC(OC(=O)C2(O)c3ccccc3C=Cc3ccccc32)C1` (stereo unspecified), the inhibition was inactive: -13.9%.
With `Cc1cc(C(=O)NCC2(N3CCCCC3)CCCCC2)ccc1[N+](=O)[O-]` the inhibition was inactive: -8.34%.
`CN(C)c1ccc(C(=O)NCC2(N(C)C)CCCCC2)cc1` was tested, and the inhibition was inactive: 6.48%.
In the case of `CN(C)C1CCCC1OC(=O)C(O)(c1ccccc1)c1ccccc1` (stereo unspecified), the inhibition is reported as inactive: -7.89%.
In the case of `Cc1ccccc1C(=O)NCC1(N2CCCCC2)CCCCC1`, the inhibition is reported as inactive: 5.88%.
